Amino acid sequences for entries named in this document (tags omitted). Residues count along the entry.
UniProt P25774, 115-331: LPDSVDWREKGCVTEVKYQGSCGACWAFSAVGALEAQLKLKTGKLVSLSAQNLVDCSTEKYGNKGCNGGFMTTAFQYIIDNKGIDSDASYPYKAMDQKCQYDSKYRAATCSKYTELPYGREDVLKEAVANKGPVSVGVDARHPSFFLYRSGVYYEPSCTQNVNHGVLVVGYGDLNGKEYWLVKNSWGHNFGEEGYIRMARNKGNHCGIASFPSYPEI

According to patent US8552202B2, “Furo[3, 2-B] pyrrol-3-ones as cathespin S inhibitors” (Amura Therapeutics Limited, priority 2008, dated 2013):

Target: Human recombinant cathepsin S (Homo sapiens (Human), UniProt P25774)
Test: In vitro cathepsin Ki inhibition measurements, cathepsin S
Assay type: biochemical
Settings: cathepsin S over cathepsin K
Experimental: Stock solutions of substrate or inhibitor were made up to 10 mM in 100% dimethylsulfoxide (DMSO) (Rathburns, Glasgow, U.K.) and diluted as appropriately required. In all cases the DMSO concentration in the assays was maintained at less than 1% (vol./vol.). The equilibrium inhibition constants (Ki^ss) for each compound were measured under steady-state conditions monitoring enzyme activity as a function of inhibitor concentration. The values were calculated on the assumption of pure competitive behaviour (Cornish-Bowden, A. Fundamentals of enzyme kinetics Portland Press; 1995, 93-128.). […]
The apparent inhibition constant (Ki) for each compound was determined on the basis that inhibition was reversible and occurred by a pure-competitive mechanism. The Ki values were calculated, from the dependence of enzyme activity as a function of inhibitor concentration, by direct regression analysis (Prism v 3.02) using Equation 2 (Cornish-Bowden, A., 1995.).
In situations where the apparent dissociation constant (Ki^app) approached the enzyme concentrations, the Ki^app values were calculated using a quadratic solution in the form described by Equation 3 (Morrison, J. F. Trends Biochem. Sci., 7, 102-105, 1982; Morrison, J. F. Biochim. Biophys. Acta. 185, 269-286, 1969: Stone, S. R. and Hofsteenge, J. Biochemistry, 25, 4622-4628, 1986). […]

O=C(N[C@H](C(=O)N1CC[C@H]2OCC(=O)[C@H]21)C1CCCCC1)c1ccccc1 [Compound 1]
selectivity verses cathepsin K (in words): little selectivity
